These results are taken from patent US9085561B2, “Cyclic urea- or lactam-substituted quinoxaline-type piperidines as ORL-1 modulators” (priority 2012, dated 2015).

The structures appear in SMILES notation.

This assay deals with human opioid receptor-like (ORL-1) (Homo sapiens, UniProt P41146). Briefly: In vitro ORL-1 receptor [35S]GTPγS functional assay. It is filed as biochemical. The conditions noted are these: procedure of Example 38. (In general: GTPγS resists hydrolysis and so accumulates on activated G proteins.)
For `Nc1ccn(-c2nc3ccccc3n([C@H]3C[C@H]4CCC[C@@H](C3)N4[C@H]3C[C@@H]4CCC[C@@H](C4)C3)c2=O)c(=O)n1` [B5a(i), 1-((1R,1′R,3r,3′R,5S,5′S)-[3,9′-bi(9′-azabicyclo[3.3.1]nonan)]-3′-yl)-3-(4-amino-2-oxopyrimidin-1(2H)-yl)quinoxalin-2(1H)-one], the “GTPγS ORL-1 Emax [mean ± SEM]” value is listed as −0.3 ± 0.7%.

Take `O=C(O)Cn1cccc(-c2nc3ccccc3n([C@H]3C[C@H]4CCC[C@@H](C3)N4C3CCCCCCCCC3)c2=O)c1=O` [BB13c(iii), 2-(3-(4-((1R,3r,5S)-9-cyclodecyl-9-azabicyclo[3.3.1]nonan-3-yl)-3-oxo-3,4-dihydroquinoxalin-2-yl)-2-oxopyridin-1(2H)-yl)acetic acid]: the “GTPγS ORL-1 Emax [mean ± SEM]” value is recorded as 127.3 ± 1.3%.

With `O=c1cnn(-c2nc3ccccc3n([C@H]3C[C@H]4CC[C@@H](C3)N4[C@H]3C[C@@H]4CCC[C@@H](C4)C3)c2=O)c(=O)[nH]1` [Compound A9a, 2-(4-((1R,3R,5S)-8-((1R,3r,5S)-bicyclo[3.3.1]nonan-3-yl)-8-azabicyclo[3.2.1]octan-3-yl)-3-oxo-3,4-dihydroquinoxalin-2-yl)-1,2,4-triazine-3,5(2H,4H)-dione], the “GTPγS ORL-1 Emax [mean ± SEM]” value worked out at 15.3 ± 1.7%.

`O=c1ccn(-c2nc3ccccc3n([C@H]3C[C@H]4CCC[C@@H](C3)N4[C@H]3C[C@@H]4CCC[C@@H](C4)C3)c2=O)c(=O)[nH]1` [Compound B13a, 1-(4-((1R,1′R,3r,3′R,5S,5′S)-[3,9′-bi(9′-azabicyclo[3.3.1]nonan)]-3′-yl)-3-oxo-3,4-dihydroquinoxalin-2-yl)pyrimidine-2,4(1H,3H)-dione]: the “GTPγS ORL-1 Emax [mean ± SEM]” value came to 0.3 ± 0.7%.

In the case of `O=c1cnn(-c2nc3ccccc3n([C@H]3C[C@H]4CCC[C@@H](C3)N4C3CCCCCCC3)c2=O)c(=O)[nH]1` [Compound H9c, 2-(4-((1R,3r,5S)-9-cyclooctyl-9-azabicyclo[3.3.1]nonan-3-yl)-3-oxo-3,4-dihydroquinoxalin-2-yl)-1,2,4-triazine-3,5(2H,4H)-dione], the “GTPγS ORL-1 Emax [mean ± SEM]” value was determined as 41 ± 2%.

Regarding `O=c1cnn(-c2nc3ccccc3n([C@H]3C[C@H]4CCC[C@@H](C3)N4[C@@H]3C[C@@H]4CCCC[C@@H](C4)C3)c2=O)c(=O)[nH]1` [Compound O9b, 2-(4-((1R,3R,5S)-9-((1R,6S,8s)-bicyclo[4.3.1]decan-8-yl)-9-azabicyclo[3.3.1]nonan-3-yl)-3-oxo-3,4-dihydroquinoxalin-2-yl)-1,2,4-triazine-3,5(2H,4H)-dione], the “GTPγS ORL-1 Emax [mean ± SEM]” value is −1%.

For `O=c1ccn(-c2nc3ccccc3n([C@H]3C[C@H]4CCC[C@@H](C3)N4[C@@H]3C[C@@H]4CCCC[C@@H](C4)C3)c2=O)c(=O)[nH]1` [Compound O13b, 1-(4-((1R,3R,5S)-9-((1R,6S,8s)-bicyclo[4.3.1]decan-8-yl)-9-azabicyclo[3.3.1]nonan-3-yl)-3-oxo-3,4-dihydroquinoxalin-2-yl)pyrimidine-2,4(1H,3H)-dione], the “GTPγS ORL-1 Emax [mean ± SEM]” value is given as −1%.

With `Nc1ccn(-c2nc3ccccc3n([C@H]3C[C@H]4CCC[C@@H](C3)N4[C@@H]3C[C@@H]4CCCC[C@@H](C4)C3)c2=O)c(=O)n1` [Compound U068, 3-(4-amino-2-oxopyrimidin-1(2H)-yl)-1-((1R,3R,5S)-9-((1R,6S,8s)-bicyclo[4.3.1]decan-8-yl)-9-azabicyclo[3.3.1]nonan-3-yl)quinoxalin-2(1H)-one], the “GTPγS ORL-1 Emax [mean ± SEM]” value is −1%.

On to `O=C(O)Cn1cccc(-c2nc3ccccc3n([C@H]3C[C@H]4CC[C@@H](C3)N4[C@H]3C[C@@H]4CCC[C@@H](C4)C3)c2=O)c1=O` [Q13a(iii), 2-(3-(4-((1R,3R,5S)-8-((1R,3r,5S)-bicyclo[3.3.1]nonan-3-yl)-8-azabicyclo[3.2.1]octan-3-yl)-3-oxo-3,4-dihydroquinoxalin-2-yl)-2-oxopyridin-1(2H)-yl)acetic acid], for which the “GTPγS ORL-1 Emax [mean ± SEM]” value worked out at 41.7 ± 1.8%.
